Values quoted from earlier work as cited in PMC7399559.

Biological target: trypsin (Bos taurus) (UniProt P00760)

Kd: 0.05 pM and 0.06 pM
Substance: BPTI (from UniProt P00974)

Several values for one entry are separate records, joined by “and”; a condition that tells them apart may be missing. Equal values may be shown once.
